These results are taken from US20220389009A1, “SUBSTITUTED 1,6-NAPHTHYRIDINE INHIBITORS OF CDK5” (Goldfinch Bio, Inc., priority 2019, published 2022).

Protein sequences, listed by entry. Tags and fused reporters are not part of them. Residues count along the entry.
UniProt Q00535, whole entry: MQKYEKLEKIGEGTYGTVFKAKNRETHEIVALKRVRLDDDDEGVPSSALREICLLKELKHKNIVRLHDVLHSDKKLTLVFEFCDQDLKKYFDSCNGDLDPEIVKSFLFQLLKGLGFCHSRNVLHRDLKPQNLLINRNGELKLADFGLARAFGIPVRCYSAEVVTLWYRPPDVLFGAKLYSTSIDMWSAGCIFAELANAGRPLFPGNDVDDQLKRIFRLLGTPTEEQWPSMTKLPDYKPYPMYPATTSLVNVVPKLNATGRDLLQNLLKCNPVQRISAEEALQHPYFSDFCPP
UniProt Q15078, 99-307 partner limits assumed: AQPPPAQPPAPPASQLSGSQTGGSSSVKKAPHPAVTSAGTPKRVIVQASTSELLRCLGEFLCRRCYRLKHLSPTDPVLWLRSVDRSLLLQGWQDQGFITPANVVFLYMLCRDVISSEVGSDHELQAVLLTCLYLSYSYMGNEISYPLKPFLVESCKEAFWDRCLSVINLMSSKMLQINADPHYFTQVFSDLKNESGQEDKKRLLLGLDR

A word on the IC50: it is the concentration that inhibits the measured activity by half.

One experiment concerns the target CDK5/p25 (Homo sapiens, UniProt Q00535). As to the kind of experiment: CDK5 mobility shift assay (enzymatic activity of CDK5/p25).
For the next experiment, the target named is CDK2/CycA2 (Homo sapiens, UniProt P24941). As to the kind of experiment: CDK2 mobility shift assay (enzymatic activity of CDK2/CycA2). The note with it: read-out: CDK2 IC50; 1.25 nM CDK2/CycA2, 37 μM ATP, FL Peptide 18, 120 min at room temperature.

Each structure is given as a SMILES string. Where only a bound is given, the exact number is not on record here.

With `OCc1ccn(-c2ccc(Nc3cc4nc(NC5CC6CC5CN6)ccc4cn3)c(F)c2)n1` (single isomer, unassigned), the CDK5/CDK2 specificity result on CDK5/p25 (fold more active against CDK5 than CDK2) was “+ (10-fold or less more active against CDK5 than CDK2)”. Also, the concentration for half-maximal inhibition (IC50) on CDK5/p25 (read-out: CDK5 IC50, 0.154 nM CDK5/p25, FL peptide 29, 60 min at room temperature) is above 1000 nM; on CDK2/CycA2 it was above 1000 nM.
